In US9284330B2 (priority 2011, dated 2016):

Assays:
[1] = test system: primary cortical neuron cells; experiment: Effect of the compounds on the morphology of neurons (microscopy)
[2] = test system: tau protein phosphorylation; experiment: Intracellular tau protein phosphorylation of primary neurons (Western blot); type: cell-based; conditions: 1 μM

What does the source list for `CCOC(=O)C1=C(C)Nc2nc3c(c(N)c2C1c1ccc(C)cc1)CCCC3` (centres unmarked)?
Effect on the morphology of neurons ([1]; 1 μM): no morphology of neurons was observed; Effect on the morphology of neurons ([1]; 0.1 and 1 μM, 24 h after administration): neuron axon/dendrite was broken up and the cells was crimpled; Cell death seen in Western blot samples [2]: most cells died

For `CCOC(=O)C1=C(C)Nc2nc3c(c(N)c2C1c1ccc(OC)cc1)CCCC3` (centres unmarked), which “Cell death seen in Western blot samples” value [2] is on record?
Its value is “most cells died”.

Which “Cell death seen in Western blot samples” value [2] does the source give for `CCOC(=O)C1=C(C)Nc2nc3c(c(N)c2C1c1ccc([N+](=O)[O-])cc1)CCCC3` (centres unmarked) here?
The value was “most cells died”.
